According to patent publication US20210198277A1, “AMINE-SUBSTITUTED ARYL OR HETEROARYL COMPOUNDS” (Epizyme, Inc., priority 2016, published 2021):
Where two headings read alike, the source gives them in different places.

Sequences of proteins named here, by UniProt entry; tags and fusion partners are left off. Residues count along the entry.
UniProt Q96KQ7, whole entry: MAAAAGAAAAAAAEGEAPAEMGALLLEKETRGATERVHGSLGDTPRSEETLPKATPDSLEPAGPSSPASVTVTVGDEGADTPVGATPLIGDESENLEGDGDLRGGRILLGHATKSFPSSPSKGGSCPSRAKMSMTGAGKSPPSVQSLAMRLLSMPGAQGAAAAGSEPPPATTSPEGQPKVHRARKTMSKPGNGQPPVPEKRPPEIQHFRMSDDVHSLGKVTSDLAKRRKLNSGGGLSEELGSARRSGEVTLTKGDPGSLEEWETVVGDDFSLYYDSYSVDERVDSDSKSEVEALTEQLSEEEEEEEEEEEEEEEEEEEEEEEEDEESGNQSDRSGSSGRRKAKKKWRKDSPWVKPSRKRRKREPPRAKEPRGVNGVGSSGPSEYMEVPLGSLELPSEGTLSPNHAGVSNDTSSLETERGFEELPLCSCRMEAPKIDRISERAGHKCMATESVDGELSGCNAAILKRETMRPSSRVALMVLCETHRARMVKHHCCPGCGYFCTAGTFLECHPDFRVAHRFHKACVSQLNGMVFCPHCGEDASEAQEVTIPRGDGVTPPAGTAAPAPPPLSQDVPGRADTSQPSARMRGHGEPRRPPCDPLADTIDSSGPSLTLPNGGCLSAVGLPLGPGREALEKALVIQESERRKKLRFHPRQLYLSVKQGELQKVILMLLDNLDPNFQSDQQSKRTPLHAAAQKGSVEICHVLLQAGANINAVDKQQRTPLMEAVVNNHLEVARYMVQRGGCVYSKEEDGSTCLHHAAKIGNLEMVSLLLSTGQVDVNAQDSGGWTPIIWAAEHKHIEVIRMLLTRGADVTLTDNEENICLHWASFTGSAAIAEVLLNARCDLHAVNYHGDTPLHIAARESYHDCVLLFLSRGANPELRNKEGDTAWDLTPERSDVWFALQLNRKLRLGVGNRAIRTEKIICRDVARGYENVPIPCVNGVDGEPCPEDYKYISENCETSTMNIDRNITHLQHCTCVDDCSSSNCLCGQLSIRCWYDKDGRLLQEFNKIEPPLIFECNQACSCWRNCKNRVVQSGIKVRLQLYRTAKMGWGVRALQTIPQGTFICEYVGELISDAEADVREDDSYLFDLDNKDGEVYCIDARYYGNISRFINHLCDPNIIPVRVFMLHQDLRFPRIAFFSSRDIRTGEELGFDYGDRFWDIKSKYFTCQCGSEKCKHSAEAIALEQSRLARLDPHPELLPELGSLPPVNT
UniProt Q96KQ7, 913-1193 limits assumed: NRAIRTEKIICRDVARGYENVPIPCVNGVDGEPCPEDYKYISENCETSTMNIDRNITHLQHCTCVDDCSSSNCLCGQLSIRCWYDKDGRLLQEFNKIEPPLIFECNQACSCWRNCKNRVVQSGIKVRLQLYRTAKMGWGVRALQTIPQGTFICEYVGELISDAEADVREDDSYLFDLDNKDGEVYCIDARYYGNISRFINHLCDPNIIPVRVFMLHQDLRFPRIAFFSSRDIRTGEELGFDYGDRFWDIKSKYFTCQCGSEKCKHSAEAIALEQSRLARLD
UniProt Q9H9B1, whole entry: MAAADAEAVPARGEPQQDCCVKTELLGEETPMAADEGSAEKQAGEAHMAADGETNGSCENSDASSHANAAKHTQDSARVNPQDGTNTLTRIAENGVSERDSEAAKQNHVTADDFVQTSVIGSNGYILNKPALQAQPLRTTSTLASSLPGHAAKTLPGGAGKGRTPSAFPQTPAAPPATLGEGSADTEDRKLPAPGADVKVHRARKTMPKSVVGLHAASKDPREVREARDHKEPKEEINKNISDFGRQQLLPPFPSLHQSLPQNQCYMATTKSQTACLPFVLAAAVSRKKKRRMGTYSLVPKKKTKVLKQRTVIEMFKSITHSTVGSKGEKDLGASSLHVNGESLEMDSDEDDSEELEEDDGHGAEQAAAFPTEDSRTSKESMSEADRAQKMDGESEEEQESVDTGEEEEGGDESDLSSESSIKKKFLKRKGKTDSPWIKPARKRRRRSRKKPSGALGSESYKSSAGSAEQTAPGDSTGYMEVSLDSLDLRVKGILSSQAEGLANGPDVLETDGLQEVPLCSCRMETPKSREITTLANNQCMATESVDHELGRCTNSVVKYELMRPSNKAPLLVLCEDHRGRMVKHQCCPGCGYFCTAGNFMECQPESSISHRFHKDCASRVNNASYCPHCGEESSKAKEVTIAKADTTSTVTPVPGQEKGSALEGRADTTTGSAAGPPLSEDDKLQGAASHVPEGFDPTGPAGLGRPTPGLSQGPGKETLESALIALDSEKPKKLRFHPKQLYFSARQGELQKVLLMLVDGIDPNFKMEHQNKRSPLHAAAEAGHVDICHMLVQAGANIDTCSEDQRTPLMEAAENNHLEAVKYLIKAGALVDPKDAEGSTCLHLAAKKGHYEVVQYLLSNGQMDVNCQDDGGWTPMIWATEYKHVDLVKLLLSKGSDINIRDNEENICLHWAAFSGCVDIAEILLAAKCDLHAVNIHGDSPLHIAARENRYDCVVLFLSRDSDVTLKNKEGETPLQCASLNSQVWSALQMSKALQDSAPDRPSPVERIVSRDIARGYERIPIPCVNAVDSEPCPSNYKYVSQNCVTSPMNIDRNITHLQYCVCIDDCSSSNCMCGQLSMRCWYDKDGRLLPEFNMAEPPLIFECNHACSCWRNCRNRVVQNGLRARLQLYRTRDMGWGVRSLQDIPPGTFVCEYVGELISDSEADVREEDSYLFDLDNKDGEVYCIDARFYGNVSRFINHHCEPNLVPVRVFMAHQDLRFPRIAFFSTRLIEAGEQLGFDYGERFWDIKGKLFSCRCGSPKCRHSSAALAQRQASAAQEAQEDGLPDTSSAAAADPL

Columns and labels:
human EHMT2 913-1193 = human EHMT2 913-1193 (Homo sapiens, UniProt Q96KQ7); experiment: EHMT2 enzyme assay on histone peptide substrate (EHMT2 PEP); format: biochemical
EHMT1 = EHMT1 (Homo sapiens, UniProt Q9H9B1); experiment: EHMT1 enzyme assay on peptide substrate (EHMT1 PEP); format: biochemical
EHMT2 = EHMT2 (Homo sapiens, UniProt Q96KQ7); experiment: MDA-MB-231 H3K9me2 in-cell Western assay (EHMT2 ICW); format: cell-based
[1] = read-out: EHMT2 PEP IC50, Table VI
[2] = read-out: EHMT1 PEP IC50, Table VI
[3] = read-out: EHMT2 ICW IC50, Table VI

Row | SMILES | IC50 (human EHMT2 913-1193; [1]) [µM] | IC50 (EHMT1; [2]) [µM] | IC50 (EHMT2; [3]) [µM] | other results
1 | CNc1cc(C(F)(F)F)nc(Nc2ccc(OC)c(OCCCN3CCCC3)c2)n1 [Compound 362] | – | – | – | IC50 (human EHMT2 913-1193; read-out: EHMT2 PEP (IC50 μM), Table II): > 10 µM; IC50 (EHMT1; read-out: EHMT1 PEP (IC50 μM), Table II): > 10 µM; IC50 (EHMT2; read-out: EHMT2 ICW (IC50 μM), Table II, MDA-MB-231 H3K9me2 in-cell Western): > 10 µM
2 | CNc1cc(C)nc(Nc2ccc(OC)c(C#CCN3CCCCC3)c2)n1 | < 0.1 | < 0.1 | 0.1 to 1 | –
3 | CNc1ccnc(Nc2cnc(OC)c(OCC3CCN(C4CC4)C3)c2)n1 (stereo not drawn) | < 0.1 | < 0.1 | < 0.1 | –
4 | CNc1cc(C)nc(Nc2cnc(OC)c(C#CCN3CCCC3)c2)n1 | 0.1 to 1 | 0.1 to 1 | 1 to 10 | –
5 | CNc1ccnc(Nc2cnc(OC)c(OCCCN3CCCC3)c2)n1 [Compound 1048] | 0.1 to 1 | < 0.1 | 0.1 to 1 | –
6 | CNc1ccnc(N[C@@H]2CCC[C@H](OCCCN3CCCC3)C2)n1 (relative stereo) | – | – | – | IC50 (human EHMT2 913-1193; read-out: EHMT2 PEP (IC50 μM), Table III): > 10 µM; IC50 (EHMT1; read-out: EHMT1 PEP (IC50 μM), Table III): > 10 µM; IC50 (EHMT2; read-out: EHMT2 ICW (IC50 μM), Table III, MDA-MB-231 H3K9me2 in-cell Western): > 10 µM
7 | CNc1cc(C)nc(Nc2ccc(OC)c(OC[C@@H]3CCN(C(C)C)C3)c2)n1 [Compound 1040] | – | – | – | IC50 (human EHMT2 913-1193; read-out: EHMT2 PEP (IC50 μM), recombinant human EHMT2 913-1193, histone H3 1-15 peptide, balanced conditions): 1 to 10 µM; IC50 (EHMT1; read-out: EHMT1 PEP (IC50 μM)): 1 to 10 µM; IC50 (EHMT2; read-out: EHMT2 ICW (IC50 μM), H3K9me2 in-cell Western, MDA-MB-231 cells): 1 to 10 µM
8 | CNc1cc(C)nc(Nc2ccc(C#N)c(OCCCN3CCCC3)c2)n1 | 1 to 10 | 0.1 to 1 | 1 to 10 | –
9 | CNc1cc(C)nc(Nc2ccc(OC)c(C#CCN3CCCC3)c2)n1 | < 0.1 | < 0.1 | 0.1 to 1 | –
